IC50 data for two molecules are collected here from patent US9266869B2, “Substituted dialkyl(oxido)-lambda4-sulfanylidene nicotinamide derivatives as kinase inhibitors” (Allergan, Inc., priority 2013, dated 2016).

By UniProt entry, the sequences of proteins in these tests, tags left out. Residues count along the entry.
UniProt P35968, 786-1356: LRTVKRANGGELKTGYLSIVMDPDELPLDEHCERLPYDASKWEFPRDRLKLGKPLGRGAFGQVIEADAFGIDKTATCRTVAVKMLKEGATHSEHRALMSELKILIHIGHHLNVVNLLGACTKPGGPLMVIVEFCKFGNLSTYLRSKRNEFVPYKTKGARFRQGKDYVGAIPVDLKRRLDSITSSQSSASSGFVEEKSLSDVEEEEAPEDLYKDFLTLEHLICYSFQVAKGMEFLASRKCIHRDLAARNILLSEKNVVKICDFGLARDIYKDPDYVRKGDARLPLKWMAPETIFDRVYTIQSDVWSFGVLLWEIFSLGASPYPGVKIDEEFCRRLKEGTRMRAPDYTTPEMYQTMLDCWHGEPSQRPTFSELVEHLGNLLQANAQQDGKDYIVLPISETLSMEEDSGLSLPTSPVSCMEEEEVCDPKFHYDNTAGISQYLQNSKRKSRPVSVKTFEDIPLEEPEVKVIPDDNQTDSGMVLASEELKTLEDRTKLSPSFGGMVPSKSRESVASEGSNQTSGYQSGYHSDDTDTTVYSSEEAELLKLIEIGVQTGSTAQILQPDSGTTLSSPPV
UniProt P35968, 20-1356: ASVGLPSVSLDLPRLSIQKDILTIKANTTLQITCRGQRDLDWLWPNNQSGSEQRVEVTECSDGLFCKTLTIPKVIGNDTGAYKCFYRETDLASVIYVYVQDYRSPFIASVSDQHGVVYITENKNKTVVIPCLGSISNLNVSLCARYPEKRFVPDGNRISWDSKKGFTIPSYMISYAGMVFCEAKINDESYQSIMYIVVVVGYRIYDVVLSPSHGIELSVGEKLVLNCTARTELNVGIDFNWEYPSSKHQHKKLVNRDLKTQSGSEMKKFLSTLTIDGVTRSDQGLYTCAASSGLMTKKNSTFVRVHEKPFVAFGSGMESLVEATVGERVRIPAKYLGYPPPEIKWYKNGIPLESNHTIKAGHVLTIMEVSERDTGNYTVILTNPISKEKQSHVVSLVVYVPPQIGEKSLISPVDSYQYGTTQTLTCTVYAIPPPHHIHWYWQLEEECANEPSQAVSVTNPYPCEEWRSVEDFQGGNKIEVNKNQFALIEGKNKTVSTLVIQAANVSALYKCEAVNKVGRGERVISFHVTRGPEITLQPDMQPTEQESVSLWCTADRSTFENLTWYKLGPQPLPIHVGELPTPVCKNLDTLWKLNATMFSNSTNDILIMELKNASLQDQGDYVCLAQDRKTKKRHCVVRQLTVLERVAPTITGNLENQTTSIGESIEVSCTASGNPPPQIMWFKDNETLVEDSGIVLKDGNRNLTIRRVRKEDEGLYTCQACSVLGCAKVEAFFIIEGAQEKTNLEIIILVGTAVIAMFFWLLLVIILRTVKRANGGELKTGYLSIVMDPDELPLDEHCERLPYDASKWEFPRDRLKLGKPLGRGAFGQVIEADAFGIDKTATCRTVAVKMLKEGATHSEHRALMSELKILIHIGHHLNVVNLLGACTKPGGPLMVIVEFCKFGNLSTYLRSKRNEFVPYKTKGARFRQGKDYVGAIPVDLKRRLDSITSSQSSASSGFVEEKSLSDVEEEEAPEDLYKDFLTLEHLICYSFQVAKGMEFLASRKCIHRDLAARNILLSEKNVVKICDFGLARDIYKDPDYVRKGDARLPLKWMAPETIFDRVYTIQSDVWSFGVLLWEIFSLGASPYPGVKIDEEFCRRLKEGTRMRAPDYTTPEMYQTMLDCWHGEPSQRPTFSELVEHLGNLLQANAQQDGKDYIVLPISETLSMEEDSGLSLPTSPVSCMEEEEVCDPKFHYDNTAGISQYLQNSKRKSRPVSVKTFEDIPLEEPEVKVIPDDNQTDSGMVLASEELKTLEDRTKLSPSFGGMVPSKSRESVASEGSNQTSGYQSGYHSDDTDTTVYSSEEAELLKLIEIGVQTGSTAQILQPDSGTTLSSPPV
UniProt P09619, 33-1106: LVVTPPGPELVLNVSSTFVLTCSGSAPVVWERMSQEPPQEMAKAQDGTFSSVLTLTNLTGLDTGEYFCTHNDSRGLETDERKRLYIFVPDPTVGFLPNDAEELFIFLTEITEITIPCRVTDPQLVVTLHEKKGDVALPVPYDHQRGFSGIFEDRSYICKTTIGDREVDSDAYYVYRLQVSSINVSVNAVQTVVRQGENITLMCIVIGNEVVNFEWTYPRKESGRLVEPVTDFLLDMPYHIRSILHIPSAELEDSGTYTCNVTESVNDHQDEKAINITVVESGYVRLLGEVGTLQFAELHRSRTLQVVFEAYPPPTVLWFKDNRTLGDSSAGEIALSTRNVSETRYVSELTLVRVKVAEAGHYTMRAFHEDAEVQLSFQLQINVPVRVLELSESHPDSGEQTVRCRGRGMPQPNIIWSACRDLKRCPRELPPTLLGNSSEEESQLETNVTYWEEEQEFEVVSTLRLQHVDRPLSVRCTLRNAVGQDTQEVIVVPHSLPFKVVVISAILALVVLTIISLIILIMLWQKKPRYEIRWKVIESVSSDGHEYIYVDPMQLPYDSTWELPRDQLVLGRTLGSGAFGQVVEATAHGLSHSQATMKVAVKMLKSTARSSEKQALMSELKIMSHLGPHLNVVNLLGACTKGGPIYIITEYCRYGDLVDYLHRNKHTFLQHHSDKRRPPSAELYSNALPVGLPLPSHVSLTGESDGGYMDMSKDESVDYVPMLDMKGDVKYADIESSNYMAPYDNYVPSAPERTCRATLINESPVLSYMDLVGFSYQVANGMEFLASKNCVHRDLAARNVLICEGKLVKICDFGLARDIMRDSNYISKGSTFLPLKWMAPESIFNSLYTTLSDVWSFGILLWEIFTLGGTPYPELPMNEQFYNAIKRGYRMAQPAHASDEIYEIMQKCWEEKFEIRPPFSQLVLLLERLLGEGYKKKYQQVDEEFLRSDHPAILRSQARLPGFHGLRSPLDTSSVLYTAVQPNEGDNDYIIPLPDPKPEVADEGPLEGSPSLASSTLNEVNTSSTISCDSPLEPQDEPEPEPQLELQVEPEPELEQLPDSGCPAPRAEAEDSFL
UniProt P09619, 554-1106: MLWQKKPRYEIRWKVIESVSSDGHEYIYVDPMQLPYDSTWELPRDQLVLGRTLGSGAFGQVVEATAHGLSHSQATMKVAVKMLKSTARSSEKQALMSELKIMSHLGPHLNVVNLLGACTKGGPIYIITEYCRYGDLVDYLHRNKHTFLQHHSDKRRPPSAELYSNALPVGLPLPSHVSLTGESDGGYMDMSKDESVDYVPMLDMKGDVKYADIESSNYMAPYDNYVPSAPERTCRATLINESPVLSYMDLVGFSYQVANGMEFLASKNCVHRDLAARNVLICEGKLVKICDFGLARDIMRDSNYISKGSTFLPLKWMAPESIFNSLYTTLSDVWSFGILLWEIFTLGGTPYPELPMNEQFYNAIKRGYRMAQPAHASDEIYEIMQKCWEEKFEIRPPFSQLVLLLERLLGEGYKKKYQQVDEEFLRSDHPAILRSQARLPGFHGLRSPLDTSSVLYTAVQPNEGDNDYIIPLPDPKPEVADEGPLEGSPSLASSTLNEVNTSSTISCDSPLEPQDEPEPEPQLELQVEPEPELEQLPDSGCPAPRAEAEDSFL

For test [1], the target named is VEGFR2 (KDR) (Homo sapiens (Human), UniProt P35968). Kind of test: VEGFR2 Kinase Assay. The conditions noted are these: purified cytoplasmic domain KDR protein, 2.7 μM ATP; read-out: VEGFR2 Enzyme Assay (IC50 nM). Format: biochemical. The protocol:
VEGFR2 Kinase Assay Biochemical KDR kinase assays were performed in 96 well microtiter plates that were coated overnight with 75 μg/well of poly-Glu-[…]:1) in 10 mM Phosphate Buffered Saline (PBS), pH 7.4. […] Reactions were carried out in 100 μL reaction volumes containing 2.7 μM ATP in kinase buffer (50 mM Hepes buffer pH 7.4, 20 mM MgCl2, 0.1 mM MnCl2 and 0.2 mM Na3VO4). […] Reactions were initiated by the addition 20 ul per well of kinase buffer containing 200-300 ng purified cytoplasmic domain KDR protein (BPS Bioscience, San Diego, Calif.). Following a 15 minute incubation at 30° C., the reactions were washed 2 mls per well PBS-T. 100 μl of a monoclonal anti-phosphotyrosine antibody-peroxidase conjugate diluted 1:10,000 in PBS-T was added to the wells for 30 minutes. Following a 2 mls per well wash with PBS-Tween-20, 100 μl of 0-Phenylenediamine Dihydrochloride in phosphate-citrate buffer, containing urea hydrogen peroxide, was added to the wells for 7-10 minutes as a colorimetric substrate for the peroxidase. The reaction was terminated by the addition of 100 μl of 2.5N H2SO4 to each well and read using a microplate ELISA reader set at 492 nm. IC50 values for compound inhibition were calculated directly from graphs of optical density (arbitrary units) versus compound concentration following subtraction of blank values.

Test [2] has as its target T1, PDGFRβ (Homo sapiens (Human), UniProt P09619). Kind of test: PDGFRβ Cellular Assay (PDGF-induced intracellular calcium, FLIPR, NHDF-Ad). The conditions noted are these: PDGF-BB stimulation (30 ng/mL). The test is classed as cell-based. How it is done: (§1) Automated FLIPR (Fluorometric Imaging Plate Reader) technology was used to screen for inhibitors of PDGF-induced increases in intracellular calcium levels in fluorescent dye loaded endothelial cells. NHDF-Ad (Normal Human Dermal Fibroblasts, Adult; Lonza) were seeded in 384-well fibronectin coated black-walled plates overnight @ 37° C./5% CO2. Cells were loaded with calcium indicator Fluo-4 for 45 minutes at 37° C. Cells were washed 2 times (Elx405, Biotek Instruments) to remove extracellular dye. For screening, cells were pre-incubated with test agents for 30 minutes, at a single concentration (10 uM) or at concentrations ranging from 0.0001 to 10.0 uM followed by PDGF-BB stimulation (30 ng/mL). Changes in fluorescence at 516 nm were measured simultaneously in all 384 wells using a cooled CCD camera. Data were generated by determining max-min fluorescence levels for unstimulated, stimulated, and drug treated samples. IC50 values for test compounds were calculated from % inhibition of PDGF-BB stimulated responses in the absence of inhibitor.

The target in test [3] is T1, PDGFRβ. Description: PDGFRβ Kinase Assay. The test is classed as biochemical. The following applies: purified cytoplasmic domain PDGFR-b protein, 36 μM ATP; read-out: PDGFRβ Enzyme Assay (IC50 nM). How it is done: Biochemical PDGFRβ kinase assays were performed in 96 well microtiter plates that were coated overnight with 75 μg of poly-Glu-Tyr (4:1) in 10 mM Phosphate Buffered Saline (PBS), pH 7.4. The coated plates were washed with 2 mls per well PBS+0.05% Tween-20 (PBS-T), blocked by incubation with PBS containing 1% BSA, then washed with 2 mls per well
PBS-T prior to starting the reaction. Reactions were carried out in 100 μL reaction volumes containing 36 μM ATP in kinase buffer (50 mM Hepes buffer pH 7.4, 20 mM MgCl2, 0.1 mM MnCl2 and 0.2 mM Na3VO4). Test compounds were reconstituted in 100% DMSO and added to the reaction to give a final DMSO concentration of 5%. Reactions were initiated by the addition 20 ul per well of kinase buffer containing 200-300 ng purified cytoplasmic domain PDGFR-b protein (Millipore). Following a 60 minute incubation at 30° C., the reactions were washed 2 mls per well PBS-T. 100 μl of a monoclonal anti-phosphotyrosine antibody-peroxidase conjugate diluted 1:10,000 in PBS-T was added to the wells for 30 minutes. […] The reaction was terminated by the addition of 100 μl of 2.5N H2SO4 to each well and read using a microplate ELISA reader set at 492 nm. IC50 values for compound inhibition were calculated directly from graphs of optical density (arbitrary units) versus compound concentration following subtraction of blank values.

Test [4] has as its target VEGFR2 (Homo sapiens (Human), UniProt P35968). Kind of test: VEGFR2 Cellular Assay (VEGF induced intracellular calcium, FLIPR, HUVEC). Format: cell-based. The following applies: VEGF165 stimulation (10 ng/mL). The protocol:
as §1, with “VEGFR2 Cellular Assay Automated” for “Automated”, “of VEGF induced” for “of PDGF-induced”, “cells. HUVEC (human umbilical vein endothelial cells) (Clonetics)” for “cells. NHDF-Ad (Normal Human Dermal Fibroblasts, Adult; Lonza)”, “by VEGF165” for “by PDGF-BB”, “stimulation (10” for “stimulation (30”, “of VEGF” for “of PDGF-BB”
For orientation: Calcium flux is commonly read through the fluorescence of an indicator in the cells.

Usually IC50 stands for the concentration that inhibits the measured activity by half. For the molecule `Cc1ccc(F)c(C(=O)Nc2cccc(C#Cc3cc(C(=O)N=S(C)(C)=O)cnc3N)c2)c1` [Example 6], the IC50 worked out at 7 nM in test [1], 10 nM in test [2], 7 nM in test [3] and 5 nM in test [4].

Turning to `Cc1ccoc1C(=O)Nc1cccc(C#Cc2cncc(C(=O)N=S(C)(C)=O)c2)c1` [Example 2, N-[Dimethyl(oxido)-λ^4-sulfanylidene]-5-({3-[(3-methyl-2-furoyl)amino]phenyl}ethynyl)nicotinamide], the values for the IC50 in test [1], in test [3] and in test [4] were 2 nM, 6 nM and 6 nM, respectively.
